# Antibody variant affinities, Ab-14 light chain, assay 1

All variants were tested on one target, the spike HR2 peptide PDVDLGDISGINAS (SARS-CoV-2).

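The starting antibody came from a phage panning campaign against this peptide. In library AAYL50, one, two or three CDR residues were substituted; doubles and triples were drawn at random. The assay is AlphaSeq: two haploid yeast populations carry antibody and antigen on their surface. The frequency of each diploid, read from paired DNA barcodes, reflects how well the two displayed proteins bind. Read counts were normalised to the haploid input and turned into Kd by a linear fit to BCL2-family pairs of known affinity, for each replicate. Mating was done three times.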

Ab-14 is the parent antibody, in scFv form: VH, then a (GGGGS)3 linker, then VL. The heavy chain is unchanged in all variants.
VH: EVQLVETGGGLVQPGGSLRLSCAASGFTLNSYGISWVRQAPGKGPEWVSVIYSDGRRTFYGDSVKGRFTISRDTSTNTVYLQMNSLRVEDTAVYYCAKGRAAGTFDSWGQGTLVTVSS
VL: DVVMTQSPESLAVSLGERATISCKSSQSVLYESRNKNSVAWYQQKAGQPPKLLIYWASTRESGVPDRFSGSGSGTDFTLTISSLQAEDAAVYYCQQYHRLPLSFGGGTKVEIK

Each variant is given by its three light chain CDRs, as the data file delimits them; those of the parent are KSSQSVLYESRNKNSVA, WASTRES, QQYHRLPLS. Every variant below is changed at S103 of the VL (sequential numbering). Affinities are written as log10 Kd with Kd in nM; a lower number is a better binder. "nd" means that the variant was in the library but no mating with the target was seen in that replicate; the authors take this as a sign of poor binding, and no number exists. Three control strains display no target. For library AAYL50, 18% of the pairings with them gave a signal, with a median of 4.19 and one signal in twenty below 2.99, so weak values seen in few replicates may be background.

For KSSQSVLYESCNKNSVA / WANTRES / QQYHRLPLI, the assay gave 3.84, 3.99, nd.
For KSSQSVLYESRNKNSVA / WASEGES / QQYHRLPLA, the assay gave nd, 5.30, nd.
For KSSQSVLYESRCKNSVA / WASTRES / QQYERLPLA, the assay gave nd, 2.91, 3.09.
For KSSQSVLYELRNKNSVA / WASTRES / QQYYRLPLQ, the assay gave nd, 2.36, 2.08.
For KSCQSVLYESRNKNSVA / WASTREH / QQYHRLPLM, the assay gave -0.26, -0.03, -0.10.
For KSSQSVLYESRNKNSVH / WASTRES / QQYHRLPEG, the assay gave nd, 5.22, nd.
For DSSQSVLYESRNKASVA / WASTRES / QQYHRLPLP, the assay gave nd, nd, nd.
For KSSQSVLSCSRNKNSVA / WASTRES / QQYHRLPLE, the assay gave nd, 4.25, nd.
For KSSQSVRYESRNKNSVA / WASTRES / LQYHRLPLW, the assay gave nd, nd, nd.
For YSSQSVLYESRNKYSVA / WASTRES / QQYHRLPLE, the assay gave nd, 4.48, nd.
For KSSQSVLYESRNKNSVA / WASTTED / QQYHRLPLM, the assay gave 3.59, 1.89, 2.10.
For KSSQSVLYEFRNKNSLA / WASTRES / QQYHRLPLE, the assay gave 4.10, 3.40, nd.
For KSSQSVLYESRNKNSVA / WASTRMS / QQYHRLPDE, the assay gave nd, 4.32, nd.
For TSSQSCLYESRNKNSVA / WASTRES / QQYHRLPLT, the assay gave 1.31, 0.93, 1.27.
For KSSQSVLYESRNKNSVA / WASTRMS / QQYHRCPLY, the assay gave nd, nd, 2.36.
For KSSQSVLYESRNKNSEA / WASTRES / QQYHRTPLD, the assay gave nd, nd, nd.
For KSSQSVLYESRNKNSVA / WASTRES / QQYHRLPLM, the assay gave 1.17, 1.18, 1.21.
For KSSQSVLYFSRNKNSVA / WASTNES / QQYHRLPLN, the assay gave nd, nd, nd.
For KKSQSVLYESRNKNSVA / WASTRES / QQYHRLVLV, the assay gave nd, nd, 3.35.
For KSSQCVLYESRNFNSVA / WASTRES / QQYHRLPLR, the assay gave nd, nd, nd.
For KSSQSVLYESRNKNSVA / WASTRES / QQYHQLPLI, the assay gave 0.82, 0.54, 0.79.
For KSSQSVLYESRNKNSVA / QASTRES / QQYDRLPLP, the assay gave 0.01, 0.38, 0.08.
For KSSQSVLYESSNKNSVL / WASTRES / QQYHRLPLY, the assay gave 6.29, nd, nd.
For KSLQSVLYESRNKNSVA / WADTRES / QQYHRLPLA, the assay gave 1.63, 2.13, 1.93.
For KSSQSVLYESRNKNSTA / WASTRES / QQYHRLYLR, the assay gave nd, nd, nd.
For KSSQSVLYLSRNKNSAA / WASTRES / QQYHRLPLA, the assay gave nd, nd, nd.
For KSSQPVLYESRWKNSVA / WASTRES / QQYHRLPLK, the assay gave 0.83, 1.34, 1.15.
For KSSQSVLYESRNKNSVA / WASTRES / QQYHRLPLN, the assay gave 1.87, 1.85, 1.92.
For KSSQSVLYKSRNKNSVA / WGSTRES / QQYHRLPLY, the assay gave 0.92, 1.27, 1.06.
For KSSQSVRYESRNKNSVA / WASTRES / QTYHRLPLW, the assay gave 3.71, 2.33, 2.88.
For KSSQSVLEESRNKNSVA / FASTRES / QQYHRLPLY, the assay gave 1.22, 1.39, 1.58.
For KSSQSVLYESRNKNSVA / WASYRPS / QQYHRLPLP, the assay gave nd, 1.23, 1.22.
For KSSQSCLYESRNKNSVA / WASTREC / QQYHRLPLD, the assay gave nd, nd, nd.
For KSSQSVLYESRNKNSVA / WASTRES / QQYHRLPLL, the assay gave 0.61, 0.76, 0.66.
For KSSQSVLCESRNKNSVA / WASTRES / QQYHRLPLG, the assay gave 2.39, 1.82, 2.88.
For KSLQSVTYESRNKNSVA / WASTRES / QQYHRLPLV, the assay gave 3.35, nd, nd.
For KGSQSVLYESRNKNSVA / WDSTRES / QQYHRLPLI, the assay gave 2.78, nd, nd.
For KSSQSVLYESRNTNSVA / WASTRES / QDYHRLPLN, the assay gave nd, nd, nd.

In this assay the parent's reference entry averaged 0.65; its copy inside this library read 1.68.

Data: MIT Lincoln Laboratory AlphaSeq set, Engelhart et al. 2022, doi:10.1038/s41597-022-01779-4, as distributed in FLAb.